For 1 substance, Solubility in water results are on record in US12568965B2, “Antimicrobial composition comprising an alkyldimethylbenzylammonium compound” (priority 2022, dated 2026).

With “n-alkyl (40% C12, 50% C14, 10% C16) dimethylbenzylammonium saccharinate [ADMBAS]”, the Solubility in water result is reported as “substantially insoluble in water”.
